Test: Solubility in Glycerol/H2O (60/40)
Details: glycerol/water (60/40), aqueous with cosolvent or surfactant or cyclodextrin

[O]N1C2(CCOCC2)CC(N2CC(O)CN(C3CC4(CCOCC4)N([O])C4(CCOCC4)C3)C2=O)CC12CCOCC2 (stereo not shown) [Compound 69, 5-Hydroxy-1,3-bis(7-oxyl-3,11-dioxa-7-azadispiro[5.1.5.3]-hexadec-15-yl)tetrahydropyrimidin-2(1H)-one]
solubility: > 10 mM

— patent US9738657B2, “Highly efficient polarizing agents for dynamic nuclear polarization” (Bruker Biospin S.A.S., priority 2013, dated 2017)
